Results on one molecule are retold here after BindingDB's records for 14698188.

Sequences of proteins named here, by UniProt entry; tags and fusion partners are left off. Residues count along the entry.
UniProt P21397, whole entry: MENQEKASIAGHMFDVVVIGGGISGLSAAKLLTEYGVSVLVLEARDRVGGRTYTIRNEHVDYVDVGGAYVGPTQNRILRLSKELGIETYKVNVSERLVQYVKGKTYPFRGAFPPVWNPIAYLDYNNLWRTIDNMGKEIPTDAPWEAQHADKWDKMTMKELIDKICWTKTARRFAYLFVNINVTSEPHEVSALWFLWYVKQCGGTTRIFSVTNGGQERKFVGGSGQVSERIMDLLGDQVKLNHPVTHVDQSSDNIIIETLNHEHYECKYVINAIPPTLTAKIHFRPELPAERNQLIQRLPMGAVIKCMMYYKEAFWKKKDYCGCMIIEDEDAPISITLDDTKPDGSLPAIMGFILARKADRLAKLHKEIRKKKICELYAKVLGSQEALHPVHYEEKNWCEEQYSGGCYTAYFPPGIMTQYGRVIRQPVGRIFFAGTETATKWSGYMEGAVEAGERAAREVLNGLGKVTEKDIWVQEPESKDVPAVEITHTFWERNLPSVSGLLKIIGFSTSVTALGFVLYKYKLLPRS
UniProt P27338, 2-520 limits assumed: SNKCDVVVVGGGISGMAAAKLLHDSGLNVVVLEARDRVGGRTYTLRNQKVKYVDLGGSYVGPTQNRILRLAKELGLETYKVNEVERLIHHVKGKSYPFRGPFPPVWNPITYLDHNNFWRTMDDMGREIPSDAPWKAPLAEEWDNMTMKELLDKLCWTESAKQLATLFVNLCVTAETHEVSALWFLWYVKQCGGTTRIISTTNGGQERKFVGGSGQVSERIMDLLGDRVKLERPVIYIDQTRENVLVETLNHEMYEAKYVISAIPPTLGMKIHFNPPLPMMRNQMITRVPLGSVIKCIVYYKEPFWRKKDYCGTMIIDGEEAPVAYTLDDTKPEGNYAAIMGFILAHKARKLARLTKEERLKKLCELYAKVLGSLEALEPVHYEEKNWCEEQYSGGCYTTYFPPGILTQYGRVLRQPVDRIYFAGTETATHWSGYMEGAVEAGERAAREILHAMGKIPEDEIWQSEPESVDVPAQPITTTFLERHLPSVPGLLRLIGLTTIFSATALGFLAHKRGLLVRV

The Ki is a dissociation constant, usually derived from enzyme kinetics or from competition with a known ligand.

The test has as its target Amine oxidase [flavin-containing] A/B (Homo sapiens, UniProt P21397+P27338). Description: ChEBML_220586. As for the experimental part: Displacement of [3H]2-BFI (1 nM) from imidazoline receptor I-2 in human brain

`c1ccc2c(c1)OCC(C1=NCCN1)O2` (stereo unspecified) had a Ki of 28 nM.
